The target of assay [1] is murine CD3-epsilon (CD3 on the surface of 2B4 T hybridoma cells) (murine) (UniProt P22646). Description: flow cytometry on 2B4 cells, 10 uL purified bispecific; detected with biotinylated anti-Vβ8.2 (F23.1) and streptavidin-cychrome; no-BISP control median 2.48. A general note: A flow cytometer gives signals particle by particle.
Assay [2] shares this target. Kind of assay: flow cytometry on 2B4 cells, 5 uL purified bispecific; detected with biotinylated anti-Vβ8.2 (F23.1) and streptavidin-cychrome; no-BISP control peak channel 1.
Assay [3] has as its target IA^d/OVA (OVA peptide 323-339 in the context of the class II MHC IA^d molecule) (mouse) (UniProt P01012). Description: cell-based or functional assay.
Assay [4] has as its target anti-idiotypic, anti-DO11.10 TCR mAb KJ-1. Kind of assay: cell-based or functional assay.
The target in assay [5] is murine CD3-epsilon (CD3 on the surface of 2B4 T hybridoma cells) (murine) (UniProt P22646). Kind of assay: flow cytometry on 2B4 cells, 5 uL purified bispecific; detected with biotinylated anti-Vβ8.2 (F23.1) and streptavidin-cychrome; no-BISP control mean 8.08.
Assay [6] has the same target. Description: flow cytometry on 2B4 cells, 1 uL purified bispecific; detected with biotinylated anti-Vβ8.2 (F23.1) and streptavidin-cychrome; no-BISP control peak channel 1.
Assay [7] has the same target. Description: flow cytometry on 2B4 cells, 1 uL purified bispecific; detected with biotinylated anti-Vβ8.2 (F23.1) and streptavidin-cychrome; no-BISP control median 2.48.
For assay [8] the target is unchanged. Description: flow cytometry on 2B4 cells, 10 uL purified bispecific; detected with biotinylated anti-Vβ8.2 (F23.1) and streptavidin-cychrome; no-BISP control peak channel 1.
The target is the same in assay [9]. Description: flow cytometry on 2B4 cells, 10 uL purified bispecific; detected with biotinylated anti-Vβ8.2 (F23.1) and streptavidin-cychrome; no-BISP control mean 8.08.
For assay [10] the target is unchanged. Description: flow cytometry on 2B4 cells, 1 uL purified bispecific; detected with biotinylated anti-Vβ8.2 (F23.1) and streptavidin-cychrome; no-BISP control mean 8.08.
The target is the same in assay [11]. Kind of assay: flow cytometry on 2B4 cells, 5 uL purified bispecific; detected with biotinylated anti-Vβ8.2 (F23.1) and streptavidin-cychrome; no-BISP control median 2.48.

Protein sequences, listed by entry. Tags and fused reporters are not part of them. Residues count along the entry.
UniProt P22646, 22-189: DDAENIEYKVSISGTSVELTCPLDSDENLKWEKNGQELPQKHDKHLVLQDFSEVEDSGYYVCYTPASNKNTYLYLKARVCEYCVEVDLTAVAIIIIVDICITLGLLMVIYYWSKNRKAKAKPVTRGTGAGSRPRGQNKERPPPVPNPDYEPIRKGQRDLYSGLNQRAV

This note sets out measurements from patent US8105830.

In turn, “pBISP/DO11.10 bispecific sc molecule (DO11.10 scTCR - linker - 145-2C11 sc-Fv - EE tag)” showed a Median (FL3-H fluorescence) in [1] of 24.6. Besides, the Peak Ch (FL3-H) in assay [2] is 15. Further, in assay [3], the IL-2 expressed by 2B4 T hybridoma cells (IL-2 ELISA); plate-bound IA^d/OVA; BISP alone is 0.01 and the IL-2 expressed by 2B4 T hybridoma cells (IL-2 ELISA); plate-bound IA^d/OVA; BISP plus MR5-2 mAb (dimerization) amounted to 0.271. Besides, in assay [4], the IL-2 in supernatant of 2B4 T hybridoma cells (IL-2 ELISA, OD450); immobilized KJ-1; BISP 2 ng/well worked out at 0.013 OD450; the IL-2 in supernatant of 2B4 T hybridoma cells (IL-2 ELISA, OD450); immobilized KJ-1; BISP 3.9 ng/well came out at 0.036 OD450; the IL-2 in supernatant of 2B4 T hybridoma cells (IL-2 ELISA, OD450); immobilized KJ-1; BISP 7.8 ng/well came to 0.196 OD450; the IL-2 in supernatant of 2B4 T hybridoma cells (IL-2 ELISA, OD450); immobilized KJ-1; BISP 15.6 ng/well stood at 0.72 OD450. In assay [4], the IL-2 in supernatant of 2B4 T hybridoma cells (IL-2 ELISA, OD450); immobilized KJ-1; BISP 31.2 ng/well came to 1.01 OD450; the IL-2 in supernatant of 2B4 T hybridoma cells (IL-2 ELISA, OD450); immobilized KJ-1; BISP 62.5 ng/well was 1.34 OD450; the IL-2 in supernatant of 2B4 T hybridoma cells (IL-2 ELISA, OD450); immobilized KJ-1; BISP 125 ng/well worked out at 1.75 OD450; the IL-2 in supernatant of 2B4 T hybridoma cells (IL-2 ELISA, OD450); immobilized KJ-1; BISP 250 ng/well was 2.07 OD450. For the same substance, the Mean (FL3-H fluorescence) in assay [5] amounted to 19.3. The substance further registered a Peak Ch (FL3-H) in [6] of 3. In assay [7], this substance returned a Median (FL3-H fluorescence) of 3.65. The substance also displayed a Peak Ch (FL3-H) in assay [8] of 27. Besides, the Mean (FL3-H fluorescence) in assay [9] turned out to be 28.3. Besides, in [10], the Mean (FL3-H fluorescence) was found to be 7.51. Moreover, in [11], the Median (FL3-H fluorescence) was 14.5.
